Amino acid sequences for entries named in this document (tags omitted). A change or cut given only in a name is not applied to a line headed by its entry.
UniProt Q9HAZ1: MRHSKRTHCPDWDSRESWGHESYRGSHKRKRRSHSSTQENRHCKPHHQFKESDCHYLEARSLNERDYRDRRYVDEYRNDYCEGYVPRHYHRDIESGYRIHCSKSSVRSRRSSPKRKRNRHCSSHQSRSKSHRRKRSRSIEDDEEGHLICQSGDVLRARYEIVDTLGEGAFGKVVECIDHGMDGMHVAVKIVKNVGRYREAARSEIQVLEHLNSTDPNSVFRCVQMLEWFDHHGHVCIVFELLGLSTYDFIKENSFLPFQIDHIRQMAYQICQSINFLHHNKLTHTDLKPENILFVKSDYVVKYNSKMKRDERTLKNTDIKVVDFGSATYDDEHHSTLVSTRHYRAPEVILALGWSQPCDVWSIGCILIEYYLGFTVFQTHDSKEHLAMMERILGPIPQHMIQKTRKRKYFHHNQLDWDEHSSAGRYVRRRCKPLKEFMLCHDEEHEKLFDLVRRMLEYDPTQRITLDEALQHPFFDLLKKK

According to ChEMBL document CHEMBL2390846, “Small-molecule pyrimidine inhibitors of the cdc2-like (Clk) and dual specificity tyrosine phosphorylation-regulated (Dyrk) kinases: development of chemical probe ML315” (Bioorg Med Chem Lett, 2013):

What was measured:
[1] = molecular target: T1, Dual specificity protein kinase CLK4 (Homo sapiens, UniProt Q9HAZ1)
[2] = molecular target: T1, Dual specificity protein kinase CLK4; test: Inhibition of CLK4 (unknown origin) by bioluminescence assay

| IC50 [1] [µM] | IC50 [2] [µM] | SMILES |
| --- | --- | --- |
| 7.54 |  | c1cncc(CNc2ncncc2-c2ccc3c(c2)OCO3)c1 |
|  | 22.4 | Cc1noc(C)c1-c1nccc(NCc2ccccc2)n1 |
